From PMC2698029 (Journal of medicinal chemistry, 2009)

System: Plasmodium berghei, ANKA strain
Assay: Single oral dose antimalarial efficacy in P. berghei-infected mice
Type: in vivo, C57BL/6J male mice

SMILES | Average Survival (days) After Infection (single oral dose 1 × 144 mg/kg, in parentheses actual mouse survival until day) | Average survival (dimer 40 mg/kg combined with mefloquine hydrochloride 13 mg/kg, single oral dose)
C[C@H]1[C@@H](CC(C[C@H]2O[C@@H]3C[C@]4(C)CC[C@H]5[C@H](C)CC[C@@H]([C@H]2C)[C@@]35OO4)CS(=O)(=O)c2ccc(COC(=O)N(C)C)cc2)O[C@@H]2C[C@]3(C)CC[C@H]4[C@H](C)CC[C@@H]1[C@@]24OO3 [Dimer 4c, dimeric sulfone benzylic dimethyl carbamate] | 30.0 days | –
C[C@H]1[C@@H](CC(C[C@H]2O[C@@H]3C[C@]4(C)CC[C@H]5[C@H](C)CC[C@@H]([C@H]2C)[C@@]35OO4)CS(=O)(=O)c2ccc(CO)cc2)O[C@@H]2C[C@]3(C)CC[C@H]4[C@H](C)CC[C@@H]1[C@@]24OO3 (some centres unmarked) [Dimer 4b, dimeric sulfone benzylic alcohol] | – | 28 days
